The target in assay [1] is wild-type HSP90α class A N-terminal protein (Homo sapiens, UniProt P07900). Description: Fluorescence polarization assay, inhibition of Cy3B-labeled geldanamycin binding, wild-type HSP90. Conditions: read-out: IC50 (nM) WT, 40 nM Cy3B-labeled geldanamycin, room temperature, 2 hours. A general note: Fluorescence polarisation rises when a labelled molecule tumbles more slowly, as on binding a larger partner.

Sequences of proteins named here, by UniProt entry; tags and fusion partners are left off. A change or cut given only in a name is not applied to a line headed by its entry. Residues count along the entry.
UniProt P07900, 2-236 Q23E limits assumed: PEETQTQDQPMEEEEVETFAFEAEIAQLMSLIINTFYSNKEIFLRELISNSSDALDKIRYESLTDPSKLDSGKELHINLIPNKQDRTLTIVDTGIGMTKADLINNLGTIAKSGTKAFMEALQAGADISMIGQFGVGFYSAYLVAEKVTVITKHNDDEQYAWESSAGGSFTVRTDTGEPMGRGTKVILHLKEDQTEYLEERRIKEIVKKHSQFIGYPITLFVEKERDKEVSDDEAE
UniProt P07900, 2-236 F138L limits assumed: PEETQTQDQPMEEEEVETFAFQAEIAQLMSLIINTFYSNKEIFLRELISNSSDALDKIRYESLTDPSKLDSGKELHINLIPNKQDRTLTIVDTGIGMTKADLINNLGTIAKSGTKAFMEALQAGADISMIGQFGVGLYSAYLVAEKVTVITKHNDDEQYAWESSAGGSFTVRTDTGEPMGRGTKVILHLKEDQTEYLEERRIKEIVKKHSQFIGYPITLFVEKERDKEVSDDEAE
UniProt P07900, 2-236 Y139F limits assumed: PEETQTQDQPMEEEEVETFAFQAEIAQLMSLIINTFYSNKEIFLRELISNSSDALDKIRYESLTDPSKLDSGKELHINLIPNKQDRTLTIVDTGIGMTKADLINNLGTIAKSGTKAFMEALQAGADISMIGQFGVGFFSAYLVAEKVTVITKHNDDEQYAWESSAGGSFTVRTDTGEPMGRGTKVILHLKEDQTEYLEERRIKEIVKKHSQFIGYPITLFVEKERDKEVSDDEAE
UniProt P07900, 2-236 limits assumed: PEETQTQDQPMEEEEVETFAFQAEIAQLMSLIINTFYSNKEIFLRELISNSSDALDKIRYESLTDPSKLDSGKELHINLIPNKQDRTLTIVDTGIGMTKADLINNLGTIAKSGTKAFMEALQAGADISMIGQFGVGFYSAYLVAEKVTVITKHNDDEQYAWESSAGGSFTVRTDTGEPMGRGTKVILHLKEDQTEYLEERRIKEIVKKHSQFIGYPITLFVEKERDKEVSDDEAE

Assay [2] has as its target mutant HSP90Q23E (HSP90α class A N-terminal protein) (Homo sapiens, UniProt P07900, Q23E). Description: Fluorescence polarization assay, inhibition of Cy3B-labeled geldanamycin binding, mutant Q23E.
In assay [3] the target is mutant HSP90F138L (HSP90α class A N-terminal protein) (Homo sapiens, UniProt P07900, F138L). The assay can be described thus: Fluorescence polarization assay, inhibition of Cy3B-labeled geldanamycin binding, mutant F138L.
In assay [4] the target is mutant HSP90Y139F (HSP90α class A N-terminal protein) (Homo sapiens, UniProt P07900, Y139F). The assay can be described thus: Fluorescence polarization assay, inhibition of Cy3B-labeled geldanamycin binding, mutant Y139F.

`CCNc1cc(C(N)=O)ccc1-n1nc(C(F)(F)F)c2c(-n3cnc(-c4cnn(C)c4)c3)ccnc21`: the IC50 was 600 nM in assay [1]; 859 nM in assay [2] (read-out: IC50 (nM) Q23E, mutant Q23E, 40 nM Cy3B-labeled geldanamycin, room temperature, 2 hours); 1340 nM in assay [3] (read-out: IC50 (nM) F138L, mutant F138L, 40 nM Cy3B-labeled geldanamycin, room temperature, 2 hours); 211 nM in assay [4] (read-out: IC50 (nM) Y139F, mutant Y139F, 40 nM Cy3B-labeled geldanamycin, room temperature, 2 hours). The “Ratio (vs WT) Q23E” value in assay [2] (IC50 of mutant Q23E / IC50 of wild-type) was 1.4. The “Ratio (vs WT) F138L” value in assay [3] (IC50 of mutant F138L / IC50 of wild-type) was determined as 2.2. The “Ratio (vs WT) Y139F” value in assay [4] (IC50 of mutant Y139F / IC50 of wild-type) was determined as 0.35.

For orientation: IC50 means the concentration needed to halve the response being measured.

These data come from patent US10100095B2, “Resistant mutant 90 kDa heat shock protein” (TAIHO PHARMACEUTICAL CO., LTD., priority 2013, dated 2018).
